Data: PMC3272584 (Bioorganic & medicinal chemistry, 2011)

Tested on: rat neonatal microglia
Experiment: Short-term microglia cell viability: LDH release
Settings: short-term cell viability (90 min)

With “7,15-diisocyano-11(20)-amphilectene [Compound 3]” the “LDH50 (concentration that caused 50% release of the total LDH content of microglia cells)” value was over 10 µM.
